Laboratory results published in ChEMBL document CHEMBL5696440, “Inhibition of BET recruitment to chromatin as an effective treatment for MLL-fusion leukaemia” (Nature, 2011).

Molecular target: Amine oxidase [flavin-containing] B (Homo sapiens, UniProt P27338)
Experiment: Inhibition of human MAO B by FLINT assay

Work on CCNC(=O)C[C@@H]1N=C(c2ccc(Cl)cc2)c2cc(OC)ccc2-n2c(C)nnc21 [MOLIBRESIB] yielded an IC50 of 25 µM.
